These results are taken from PMC11370232, “Repurposing of a library for high-content screening of inhibitors against Echinococcus granulosus” (Parasites & Vectors, 2024).

Values after ≈ are worked out from the molar mass of the structure shown. Structures can show the parent of a compound that is named as a salt. Where two headings read alike, the source gives them in different places.

The assay concerns E. granulosus PSCs. The assay can be described thus: microbe, parasite or virus in culture. The settings on record: Echinococcus granulosus; for killing at 0.5 µM / killing at 2 µM / killing at 10 µM / killing at 50 µM / MIC90: 72 h; for MIC90: read-out: MIC90 (minimum inhibitory concentration causing a 90% death of PSCs).
Setting [1] is: read-out: Anti-echinococcus activity % of death, 0.5uM, E. granulosus PSCs, compound at 0.5uM.
Setting [2] is: read-out: Anti-echinococcus activity % of death, 2uM, E. granulosus PSCs, compound at 2uM.
Where [3] appears, read: read-out: Anti-echinococcus activity % of death, 10uM, E. granulosus PSCs, compound at 10uM.
Setting [4] is: read-out: Anti-echinococcus activity % of death, 50uM, E. granulosus PSCs, compound at 50uM.
Where [5] appears, read: read-out: Anti-echinococcus activity % of death.
Where [6] appears, read: read-out: Anti-echinococcus activity % of death, 0.5uM.
[7] abbreviates: read-out: Anti-echinococcus activity % of death, 2uM.
The mark [8] stands for this setting: read-out: Anti-echinococcus activity % of death, 10uM.
The mark [9] stands for this setting: read-out: Anti-echinococcus activity % of death, 50uM.
[10] abbreviates: read-out: Anti-echinicoccus activity, Dose confirmaiton 0.5uM, second-stage dose-response, 0.5 μM, PSCs.
Setting [11] is: read-out: Anti-echinicoccus activity, Dose confirmaiton 2uM, second-stage dose-response, 2 μM, PSCs.
[12] abbreviates: read-out: Anti-echinicoccus activity, Dose confirmaiton 10uM, second-stage dose-response, 10 μM, PSCs.
Setting [13] is: read-out: Anti-echinicoccus activity, Dose confirmaiton 50uM, second-stage dose-response, 50 μM, PSCs.
Setting [14] is: read-out: Anti-echinicoccus activity, Initiate hits 50uM, primary screen, 50 μM, PSCs, 3-day incubation, PI staining (death rate of PSCs).

`C=CC(=O)Nc1cccc(Oc2nc(Nc3ccc(N4CCN(C)CC4)cc3)nc3ccsc23)c1` [HM-61713]: under setting [1], the mortality at 0.5 µM is 0%. Further, under setting [2], the mortality at 2 µM turned out to be 0%. The mortality at 10 µM under setting [3] came to 0%. For the same compound, the mortality at 50 µM under setting [4] was 100%.
With `Cc1cccc(C(=O)N2CCC(N3CCC(Cc4ccc(S(=O)(=O)c5cccc(Cl)c5)cc4)CC3)CC2)c1N` [SCH 211803], under setting [5], the mortality at 0.5 µM stood at 0%, the mortality at 2 µM was 0%, the mortality at 10 µM amounted to 0% and the mortality at 50 µM stood at 100%.
Turning to `CC1=C(CO)C(=O)O[C@@H]([C@@H](C)[C@H]2CC[C@H]3[C@@H]4C[C@H]5O[C@]56[C@@H](O)C=CC(=O)[C@]6(C)[C@H]4CC[C@]23C)C1` [WITHAFERIN A], the mortality at 0.5 µM under setting [1] turned out to be 0%. Besides, under setting [2], the mortality at 2 µM was found to be 0%. The mortality at 10 µM under setting [3] turned out to be 100%. For the same compound, the mortality at 50 µM under setting [4] stood at 100%.
As for `N#Cc1ccc(Oc2ccc(NC(=O)Nc3ccc(Cl)c(C(F)(F)F)c3)cc2)cc1` [SC-1], the mortality at 0.5 µM under setting [6] was 0%. In addition, the mortality at 2 µM under setting [7] amounted to 0%. The mortality at 10 µM under setting [8] is 100%. The mortality at 50 µM under setting [9] was 100%.
As to `CC1=C(N2CC2)C(=O)C(CO)=C(N2CC2)C1=O` [RH 1], under setting [6], the mortality at 0.5 µM was 0%. For the same compound, the mortality at 2 µM under setting [7] was determined as 60%. In addition, the mortality at 10 µM under setting [8] was found to be 100%. Besides, the mortality at 50 µM under setting [9] came out at 100%.
Turning to `C/C=C/C/C=C/CCC(=O)[C@H]1O[C@H]1C(N)=O` [CERULENIN], under setting [6], the mortality at 0.5 µM was 0%. Further, the mortality at 2 µM under setting [7] was found to be 0%. The mortality at 10 µM under setting [8] is 0%. Also, the mortality at 50 µM under setting [9] was 100%.
As for `CCCCOC(=O)C[S+]([O-])c1nc2cccnc2s1` (stereo not shown) [EF-4040], under setting [5], the mortality at 0.5 µM was found to be 0%, the mortality at 2 µM came out at 0%, the mortality at 10 µM is 0% and the mortality at 50 µM came to 100%.
Regarding `Cc1cc(Nc2ncc(Cl)c(Nc3ccccc3S(=O)(=O)C(C)C)n2)c(OC(C)C)cc1C1CCNCC1` [Ceritinib (LDK378), Ceritinib, reference compound], under setting [10], the killing at 0.5 µM is 0%. Further, the killing at 2 µM under setting [11] is 0%. In addition, the killing at 10 µM under setting [12] stood at 0%. Further, the killing at 50 µM runs as follows: under setting [13], 100%; under setting [14], 57%. For the same compound, the mortality at 0.5 µM under setting [1] turned out to be 0%. Besides, the mortality at 2 µM under setting [2] came out at 0%. Further, under setting [3], the mortality at 10 µM came out at 100%. For the same compound, under setting [4], the mortality at 50 µM came out at 100%.
In the case of `COc1ccc(-c2ccc3ncc4c(c3c2)n(-c2ccc(N3CCNCC3)c(C(F)(F)F)c2)c(=O)n4C)cn1` [BGT226 (NVP-BGT226), BGT226, reference compound], the killing at 0.5 µM under setting [10] stood at 0%. In addition, the killing at 2 µM under setting [11] was determined as 0%. Besides, under setting [12], the killing at 10 µM is 100%. Besides, the killing at 50 µM reads like this: under setting [13], 100%; under setting [14], 88%.
Turning to `CCCCc1oc2ccc(NS(C)(=O)=O)cc2c1C(=O)c1ccc(OCCCN(CCCC)CCCC)cc1` [Dronedarone HCl, reference compound], the MIC90 came to 18 µM. In addition, the killing at 0.5 µM under setting [10] is 0%. For the same compound, the killing at 2 µM under setting [11] was 0%. The killing at 10 µM under setting [12] was determined as 0%. Besides, the killing at 50 µM under setting [13] is 100%. Moreover, under setting [14], the killing at 50 µM is 100%.
Regarding `CC1(C)C(=O)N=C2C1=C(O)C(=O)c1ccccc12` [BVT-948], the mortality at 0.5 µM under setting [6] came to 0%. The mortality at 2 µM under setting [7] is 0%. Also, under setting [8], the mortality at 10 µM stood at 100%. Further, under setting [9], the mortality at 50 µM stood at 100%.
For the compound `Cc1cc(OP(=O)(O)O)c2ccccc2c1OP(=O)(O)O` [Menadiol sodium diphosphate], the mortality at 0.5 µM under setting [6] is 0%. Under setting [7], the mortality at 2 µM is 0%. For the same compound, the mortality at 10 µM under setting [8] was 0%. The mortality at 50 µM under setting [9] was 100%.
For `NC(=O)C1(N2CCCCC2)CCN(CCCN2c3ccccc3CCc3ccc(Cl)cc32)CC1` [CLOCAPRAMINE], under setting [5], the mortality at 0.5 µM was 0%, the mortality at 2 µM stood at 0%, the mortality at 10 µM was found to be 0% and the mortality at 50 µM was 100%.
As to `O=C(C[n+]1ccn(CC(OCc2ccc(Cl)cc2Cl)c2ccc(Cl)cc2Cl)c1)c1ccc(F)cc1` (stereo not shown) [F[…]], under setting [6], the mortality at 0.5 µM was 0%. Moreover, the mortality at 2 µM under setting [7] turned out to be 0%. The mortality at 10 µM under setting [8] amounted to 0%. Also, under setting [9], the mortality at 50 µM was 100%.
For the compound `O=c1c(-c2ccccc2)c1-c1ccccc1` [Diphenylcyclopropenone], under setting [5], the mortality at 0.5 µM is 0%, the mortality at 2 µM was 0%, the mortality at 10 µM amounted to 0% and the mortality at 50 µM came to 100%.
For `COc1ccc2c3c1OC1C(=O)C=CC4(O)C(C2)N(C)CCC314` (stereo not shown) [14-Hydroxycodeinone], the mortality at 0.5 µM under setting [6] is 0%. In addition, the mortality at 2 µM under setting [7] is 20%. The mortality at 10 µM under setting [8] worked out at 40%. For the same compound, the mortality at 50 µM under setting [9] is 100%.
For `CC1=C(O)C(=O)C=C2C1=CC=C1[C@@]2(C)CC[C@@]2(C)[C@@H]3C[C@](C)(C(=O)O)CC[C@]3(C)CC[C@]12C` [Celastrol, reference compound], the killing at 0.5 µM (read-out: Anti-echinicoccus activity, Dose confirmaiton 0.5uM) is 0%. For the same compound, for the setting “read-out: Anti-echinicoccus activity, Dose confirmaiton 2uM”, the killing at 2 µM came to 0%. The killing at 10 µM (read-out: Anti-echinicoccus activity, Dose confirmaiton 10uM) came out at 100%. For the same compound, the killing at 50 µM (read-out: Anti-echinicoccus activity, Dose confirmaiton 50uM) stood at 100% and the killing at 50 µM (read-out: Anti-echinicoccus activity, Initiate hits 50uM) came out at 94%.
Consider `c1ccc(SCCCNCCC(c2ccccc2)c2ccccc2)cc1` [tiopropamine], for which, under setting [5], the mortality at 0.5 µM worked out at 0%, the mortality at 2 µM is 0%, the mortality at 10 µM turned out to be 0% and the mortality at 50 µM came to 100%.
In the case of `COC(=O)[C@]12CCC(C)(C)C[C@H]1[C@H]1C(=O)C=C3[C@@]4(C)C=C(C#N)C(=O)C(C)(C)[C@@H]4CC[C@@]3(C)[C@]1(C)CC2` [Bardoxolone methyl, reference compound], the MIC90 was 3.8 µM (≈ 1.92 µg/mL). Moreover, the killing at 0.5 µM under setting [10] came to 0%. For the same compound, the killing at 2 µM under setting [11] turned out to be 0%. Further, under setting [12], the killing at 10 µM turned out to be 40%. Moreover, the killing at 50 µM under setting [13] was 100%. Moreover, the killing at 50 µM under setting [14] was 100%. Moreover, under setting [1], the mortality at 0.5 µM turned out to be 0%. Under setting [3], the mortality at 10 µM came to 100%. Moreover, the mortality at 50 µM under setting [4] turned out to be 100%.
In the case of `O=C1NCN(c2ccccc2)C12CCN(CCCC(c1ccc(F)cc1)c1ccc(F)cc1)CC2` [Fluspirilene], the mortality at 0.5 µM under setting [6] turned out to be 0%. For the same compound, the mortality at 2 µM under setting [7] is 0%. In addition, the mortality at 10 µM under setting [8] was found to be 0%. Besides, under setting [9], the mortality at 50 µM amounted to 100%.
Take `CC(=O)c1cc2c(o1)C(=O)c1ccccc1C2=O` [Napabucasin]: the mortality at 0.5 µM under setting [6] turned out to be 0%. Also, the mortality at 2 µM under setting [7] was 0%. Under setting [8], the mortality at 10 µM is 50%. The mortality at 50 µM under setting [9] stood at 100%.
Turning to `Nc1c2ccccc2nc2ccccc12` [ACRISORCIN], the mortality at 0.5 µM under setting [1] came to 0%. Besides, under setting [2], the mortality at 2 µM is 0%. Moreover, under setting [3], the mortality at 10 µM was 0%. Besides, under setting [4], the mortality at 50 µM was 100%.
Regarding `COc1ccccc1COCCCOc1ccc([C@H]2[C@H](CO)CNC[C@@H]2OCc2cc(OC)c3ccccc3c2)cc1` [Ro-66-1168], under setting [5], the mortality at 0.5 µM is 0%, the mortality at 2 µM was 0%, the mortality at 10 µM came out at 0% and the mortality at 50 µM stood at 100%.
Regarding `C=C1C(=O)O[C@H]2[C@H]1CC/C(C)=C/CC[C@@]1(C)O[C@@H]21` [Parthenolide, reference compound], under setting [10], the killing at 0.5 µM amounted to 0%. In addition, the killing at 2 µM under setting [11] turned out to be 0%. Moreover, the killing at 10 µM under setting [12] was 0%. Further, the killing at 50 µM stood at 100% under setting [13] and 100% under setting [14].
Consider `CC(Cc1ccccc1)NCCC(c1ccccc1)c1ccccc1` (stereo not shown) [PRENYLAMINE], for which the mortality at 0.5 µM under setting [6] stood at 0%. In addition, under setting [7], the mortality at 2 µM was determined as 0%. In addition, the mortality at 10 µM under setting [8] stood at 0%. Besides, the mortality at 50 µM under setting [9] turned out to be 100%.
Take `CO[C@@H]1[C@H](OC(=O)NC(=O)CCl)CC[C@]2(CO2)[C@H]1[C@@]1(C)O[C@@H]1CC=C(C)C` [AGM-1470]: the mortality at 0.5 µM under setting [6] stood at 0%. Also, the mortality at 2 µM under setting [7] was 0%. In addition, the mortality at 10 µM under setting [8] was found to be 40%. For the same compound, the mortality at 50 µM under setting [9] is 100%.
Turning to `COc1ccc(CCN2CCC(Nc3nc4ccccc4n3Cc3ccc(F)cc3)CC2)cc1` [astemizole], the mortality at 0.5 µM under setting [6] was 0%. Moreover, the mortality at 2 µM under setting [7] was 0%. In addition, the mortality at 10 µM under setting [8] was determined as 0%. In addition, the mortality at 50 µM under setting [9] is 100%.
As to `Cc1ccccc1-c1cc(N2CCN(C)CC2)ncc1N(C)C(=O)C(C)(C)c1cc(C(F)(F)F)cc(C(F)(F)F)c1` [Netupitant], under setting [5], the mortality at 0.5 µM came out at 0%, the mortality at 2 µM turned out to be 0%, the mortality at 10 µM came out at 0% and the mortality at 50 µM came to 100%.
